{
  "sequences": {"note": "Amino acid sequences for entries named in this document (tags omitted).", "UniProt P19327, whole entry": "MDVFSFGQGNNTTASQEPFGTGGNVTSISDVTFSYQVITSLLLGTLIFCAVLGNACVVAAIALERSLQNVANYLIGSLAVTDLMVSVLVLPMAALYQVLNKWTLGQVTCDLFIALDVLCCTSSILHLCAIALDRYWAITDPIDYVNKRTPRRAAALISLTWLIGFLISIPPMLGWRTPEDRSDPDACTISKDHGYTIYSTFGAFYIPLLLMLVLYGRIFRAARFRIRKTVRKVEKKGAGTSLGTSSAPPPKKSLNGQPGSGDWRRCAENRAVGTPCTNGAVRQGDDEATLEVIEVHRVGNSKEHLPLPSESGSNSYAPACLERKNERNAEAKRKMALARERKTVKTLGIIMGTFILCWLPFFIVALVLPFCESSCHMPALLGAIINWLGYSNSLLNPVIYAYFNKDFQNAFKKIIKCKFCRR"},
  "source": "ChEMBL document CHEMBL1124862",
  "about": "(J Med Chem, 1990)",
  "target": "5-hydroxytryptamine receptor 1A (Rattus norvegicus, UniProt P19327)",
  "assay": "Displacement of [3H]8-OH-DPAT from rat cortex 5-hydroxytryptamine 1A receptor",
  "procedure,_shortened": "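Competition binding in rat cortex membranes, using the radioligand named in each line at a concentration of approximately its K_D.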",
  "note": "pIC50: −log10 of the molar value.",
  "data": [
    {"smiles": "COc1ccc2[nH]cc(C3=CCNCC3)c2c1", "note": "[RU-24969]", "values": [
      {"measurement": "pIC50", "result": 7.85}
    ]}
  ]
}
